Test results as given in patent US6790958B2, “Purine inhibitors of cyclin dependent kinase 2 & IKBA” (priority 1996, dated 2004).

Molecular target: CDK2 (Homo sapiens, UniProt P24941)
Test: CDK2 assay (histone H1 phosphorylation, 32P-ATP filter assay)
Assay type: biochemical
Settings: concentration required to inhibit CDK2 activity by 50%; histone H1, 30 μM ATP, 30° C., 30 min; read-out: IC50 (μg/mL) enzyme (converted)

For CC(C)n1cnc2c(NCc3ccc(F)cc3)nc(NCCN)nc21, the IC50 was 495 nM.
